Chains of the proteins cited; added tags and fusions are not shown.
UniProt Q9H0R8, whole entry: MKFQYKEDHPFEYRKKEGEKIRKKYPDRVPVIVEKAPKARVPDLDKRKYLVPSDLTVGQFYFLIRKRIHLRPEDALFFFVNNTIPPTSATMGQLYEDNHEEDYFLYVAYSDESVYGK

In paper PMC6613885:

Assays:
[1] = biological target: biotin-labeled 16-mer PIK3C3 S2E LIR peptide (human); test: BLI; biotin-LIR peptides (50 µg/ml) on streptavidin biosensors, Atg8-family protein in solution at different concentrations; Octet Red 96; 25°C; global fit, 1:1 model
[2] = biological target: biotin-labeled 16-mer BECN1 S2E LIR peptide (human); test: as above

Work on “recombinant GABARAPL1 (biolayer interferometry) (from UniProt Q9H0R8 1-117) (natural protein)” yielded a fold increase in binding over the wild-type LIR peptide [1] of 19 fold and a fold increase in binding affinity over the wild-type LIR peptide [2] of 3 fold.
